The record followed here is patent US9999619B2, “Piperidin-4-yl azetidine derivatives as JAK1 inhibitors” (Incyte Corporation, priority 2010, dated 2018).

Where only a bound is given, the exact number is not on record here.

Experiment [1] deals with human JAK1 (a.a. 837-1142). Briefly: In vitro JAK kinase assay (HTRF, phosphorylation of a biotinylated peptide), JAK1. Type of experiment: biochemical. Particulars: ratio of JAK2 IC50 to JAK1 IC50, measured at 1 mM ATP. The protocol: (§1) Compounds herein were tested for inhibitory activity of JAK targets according to the following in vitro assay described in Park et al., Analytical Biochemistry 1999, 269, 94-104. The catalytic domains of human JAK1 (a.a. 837-1142), Jak2 (a.a. 828-1132) and Jak3 (a.a. 781-1124) with an N-terminal His tag were expressed using baculovirus in insect cells and purified. The catalytic activity of JAK1, JAK2 or JAK3 was assayed by measuring the phosphorylation of a biotinylated peptide. The phosphorylated peptide was detected by homogenous time resolved fluorescence (HTRF). […] Reactions were carried out at room temperature for 1 hr and then stopped with 20 μL 45 mM EDTA, 300 nM SA-APC, 6 nM Eu-Py20 in assay buffer (Perkin Elmer, Boston, Mass.). Binding to the Europium labeled antibody took place for 40 minutes and HTRF signal was measured on a Fusion plate reader (Perkin Elmer, Boston, Mass.).

In experiment [2] the target is human JAK1 (a.a. 837-1142) (Homo sapiens, UniProt P23458). The experiment is described as above. The note with it: measured at 1 mM ATP. Type of experiment: biochemical. The protocol: as §1

Regarding `N#CCC1(n2cc(-c3ncnc4[nH]ccc34)cn2)CN(C2CCN(C(=O)c3cccc(Cl)c3)CC2)C1` [Example 19, {1-[1-(3-chlorobenzoyl)piperidin-4-yl]-3-[4-(7H-pyrrolo[2,3-d]pyrimidin-4-yl)-1H-pyrazol-1-yl]azetidin-3-yl}acetonitrile], the “IC50 Ratio JAK2/JAK1” value in experiment [1] stood at 3.8.

Take `N#CCC1(n2cc(-c3ncnc4[nH]ccc34)cn2)CN(C2CCN(C(=O)c3ccc(C#N)c(F)c3)CC2)C1` [Example 66, 4-[(4-{3-(cyanomethyl)-3-[4-(7H-pyrrolo[2,3-d]pyrimidin-4-yl)-1H-pyrazol-1-yl]azetidin-1-yl}piperidin-1-yl)carbonyl]-2-fluorobenzonitrile]: the IC50 (commonly the concentration at which inhibition is half-maximal) in experiment [2] was 5 to 20 nM. The “IC50 Ratio JAK2/JAK1” value in experiment [1] is 6.2. Consider `COc1cc(C(F)(F)F)sc1C(=O)N1CCC(N2CC(CC#N)(n3cc(-c4ncnc5[nH]ccc45)cn3)C2)CC1` [Example 70, {1-{1-[3-methoxy-5-(trifluoromethyl)-2-thienylcarbonyl]piperidin-4-yl}-3-[4-(7H-pyrrolo[2,3-d]pyrimidin-4-yl)-1H-pyrazol-1-yl]azetidin-3-yl}acetonitrile], for which the IC50 in experiment [2] was at most 5 nM. In experiment [1], the “IC50 Ratio JAK2/JAK1” value is given as 3.8. Turning to `Cc1csc(C(=O)N2CCC(N3CC(CC#N)(n4cc(-c5ncnc6[nH]ccc56)cn4)C3)CC2)c1` [Example 79, {1-{1-[(4-meth1-2-thienyl)carbonyl]piperidin-4-yl}-3-[4-(7H-pyrrolo[2,3-d]pyrimidin-4-yl)-1H-pyrazol-1-yl]azetidin-3-yl}acetonitrile], in experiment [1], the “IC50 Ratio JAK2/JAK1” value worked out at 3.9. The same measure, in the same setting: with `N#CCC1(n2cc(-c3ncnc4[nH]ccc34)cn2)CN(C2CCN(C(=O)c3ccnc(C(F)(F)F)n3)CC2)C1` [Example 85, [3-[4-(7H-pyrrolo[2,3-d]pyrimidin-4-yl)-1H-pyrazol-1-yl]-1-(1-{[2-(trifluoromethyl)pyrimidin-4-yl]carbonyl}piperidin-4-yl)azetidin-3-yl]acetonitrile] the figure was 15.9. `Cc1ccc(C#N)c(N2CCC(C(=O)N3CCC(N4CC(CC#N)(n5cc(-c6ncnc7[nH]ccc67)cn5)C4)CC3)CC2)n1` [Example 108, 2-{4-[(4-{3-(cyanomethyl)-3-[4-(7H-pyrrolo[2,3-d]pyrimidin-4-yl)-1H-pyrazol-1-yl]azetidin-1-yl}piperidin-1-yl)carbonyl]piperidin-1-yl}-6-methylnicotinonitrile] came in with an IC50 in experiment [2] of 5 to 20 nM. Also, the “IC50 Ratio JAK2/JAK1” value in experiment [1] came out at 1.4. With `N#CCC1(n2cc(-c3ncnc4[nH]ccc34)cn2)CN(C2CCN(C(=O)c3ccc(-c4cccnc4)cc3F)CC2)C1` [Example 120, {1-[1-(2-fluoro-4-pyridin-3-ylbenzoyl)piperidin-4-yl]-3-[4-(7H-pyrrolo[2,3-d]pyrimidin-4-yl)-1H-pyrazol-1-yl]azetidin-3-yl}acetonitrile], the “IC50 Ratio JAK2/JAK1” value in experiment [1] is listed as 2.1. As to `N#CCC1(n2cc(-c3ncnc4[nH]ccc34)cn2)CN(C2CCN(C(=O)c3ccc(-c4nccs4)c(F)c3)CC2)C1` [Example 122, {1-{1-[3-fluoro-4-(1,3-thiazol-2-yl)benzoyl]piperidin-4-yl}-3-[4-(7H-pyrrolo[2,3-d]pyrimidin-4-yl)-1H-pyrazol-1-yl]azetidin-3-yl}acetonitrile], the IC50 in experiment [2] lay within 5 to 20 nM. In addition, the “IC50 Ratio JAK2/JAK1” value in experiment [1] was found to be 2.5.

`N#CCC1(n2cc(-c3ncnc4[nH]ccc34)cn2)CN(C2CC3CCC(C2)N3C(=O)c2ccnc(C(F)(F)F)c2)C1` (stereo not drawn) [Example 144, (3-[4-(7H-pyrrolo[2,3-d]pyrimidin-4-yl)-1H-pyrazol-1-yl]-1-{8-[2-(trifluoromethyl)isonicotinoyl]-8-azabicyclo[3.2.1]oct-3-yl}azetidin-3-yl)acetonitrile]: the “IC50 Ratio JAK2/JAK1” value in experiment [1] came out at 3.9. As for `N#CCC1(n2cc(-c3ncnc4[nH]ccc34)cn2)CN(C2CC3CCC(C2)N3C(=O)C2CCCC2)C1` (stereo not drawn) [Example 145, {1-[8-(cyclopentylcarbonyl)-8-azabicyclo[3.2.1]oct-3-yl]-3-[4-(7H-pyrrolo[2,3-d]pyrimidin-4-yl)-1H-pyrazol-1-yl]azetidin-3-yl}acetonitrile], in experiment [1], the “IC50 Ratio JAK2/JAK1” value worked out at 3.6. For the compound `N#CCC1(n2cc(-c3ncnc4[nH]ccc34)cn2)CN(C2CC3CCC(C2)N3C(=O)C2CCCCC2)C1` (stereo not drawn) [Example 147, {1-[8-(cyclohexylcarbonyl)-8-azabicyclo[3.2.1]oct-3-yl]-3-[4-(7H-pyrrolo[2,3-d]pyrimidin-4-yl)-1H-pyrazol-1-yl]azetidin-3-yl}acetonitrile], in experiment [1], the “IC50 Ratio JAK2/JAK1” value is on record as 6.1. For the compound `N#CCC1(n2cc(-c3ncnc4[nH]ccc34)cn2)CN(C2CC3CCC(C2)N3C(=O)C2CCC(F)(F)CC2)C1` (stereo not drawn) [Example 148, {1-{8-[(4,4-difluorocyclohexyl)carbonyl]-8-azabicyclo[3.2.1]oct-3-yl}-3-[4-(7H-pyrrolo[2,3-d]pyrimidin-4-yl)-1H-pyrazol-1-yl]azetidin-3-yl}acetonitrile], in experiment [2], the IC50 was at most 5 nM. Further, in experiment [1], the “IC50 Ratio JAK2/JAK1” value came out at 5.7.

Take `N#CCC1(n2cc(-c3ncnc4[nH]ccc34)cn2)CN(C2CCN(C(=O)Nc3ccc(F)cc3C(F)(F)F)CC2)C1` [Example 154, 4-{3-(Cyanomethyl)-3-[4-(7H-pyrrolo[2,3-d]pyrimidin-4-yl)-1H-pyrazol-1-yl]azetidin-1-yl}-N-[4-fluoro-2-(trifluoromethyl)phenyl]piperidine-1-carboxamide]: in experiment [1], the “IC50 Ratio JAK2/JAK1” value was found to be 22.0.
